The chains behind the UniProt entries cited, without tags or fusion partners. Residues count along the entry.
UniProt P05106, 27-788 limits assumed: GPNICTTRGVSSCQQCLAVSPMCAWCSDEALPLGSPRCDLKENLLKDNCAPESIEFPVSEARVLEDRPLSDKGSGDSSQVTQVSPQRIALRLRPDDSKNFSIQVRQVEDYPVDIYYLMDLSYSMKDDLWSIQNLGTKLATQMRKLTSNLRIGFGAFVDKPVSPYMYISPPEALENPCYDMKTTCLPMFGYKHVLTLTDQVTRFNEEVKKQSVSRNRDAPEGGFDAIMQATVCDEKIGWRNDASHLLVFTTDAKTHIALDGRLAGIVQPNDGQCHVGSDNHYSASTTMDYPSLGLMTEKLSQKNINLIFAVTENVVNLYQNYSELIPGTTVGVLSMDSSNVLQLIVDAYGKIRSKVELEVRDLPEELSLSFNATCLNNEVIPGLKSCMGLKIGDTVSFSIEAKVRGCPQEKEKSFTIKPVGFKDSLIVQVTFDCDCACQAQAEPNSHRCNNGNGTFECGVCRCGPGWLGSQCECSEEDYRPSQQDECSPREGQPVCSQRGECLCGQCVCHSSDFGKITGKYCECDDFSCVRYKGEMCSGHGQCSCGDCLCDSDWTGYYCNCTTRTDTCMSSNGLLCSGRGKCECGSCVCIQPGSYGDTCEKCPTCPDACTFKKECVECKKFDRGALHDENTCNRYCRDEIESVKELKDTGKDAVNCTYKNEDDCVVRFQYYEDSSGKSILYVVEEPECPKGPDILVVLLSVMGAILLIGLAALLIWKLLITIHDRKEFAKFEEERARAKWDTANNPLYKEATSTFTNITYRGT
UniProt P08514, 32-887 limits assumed: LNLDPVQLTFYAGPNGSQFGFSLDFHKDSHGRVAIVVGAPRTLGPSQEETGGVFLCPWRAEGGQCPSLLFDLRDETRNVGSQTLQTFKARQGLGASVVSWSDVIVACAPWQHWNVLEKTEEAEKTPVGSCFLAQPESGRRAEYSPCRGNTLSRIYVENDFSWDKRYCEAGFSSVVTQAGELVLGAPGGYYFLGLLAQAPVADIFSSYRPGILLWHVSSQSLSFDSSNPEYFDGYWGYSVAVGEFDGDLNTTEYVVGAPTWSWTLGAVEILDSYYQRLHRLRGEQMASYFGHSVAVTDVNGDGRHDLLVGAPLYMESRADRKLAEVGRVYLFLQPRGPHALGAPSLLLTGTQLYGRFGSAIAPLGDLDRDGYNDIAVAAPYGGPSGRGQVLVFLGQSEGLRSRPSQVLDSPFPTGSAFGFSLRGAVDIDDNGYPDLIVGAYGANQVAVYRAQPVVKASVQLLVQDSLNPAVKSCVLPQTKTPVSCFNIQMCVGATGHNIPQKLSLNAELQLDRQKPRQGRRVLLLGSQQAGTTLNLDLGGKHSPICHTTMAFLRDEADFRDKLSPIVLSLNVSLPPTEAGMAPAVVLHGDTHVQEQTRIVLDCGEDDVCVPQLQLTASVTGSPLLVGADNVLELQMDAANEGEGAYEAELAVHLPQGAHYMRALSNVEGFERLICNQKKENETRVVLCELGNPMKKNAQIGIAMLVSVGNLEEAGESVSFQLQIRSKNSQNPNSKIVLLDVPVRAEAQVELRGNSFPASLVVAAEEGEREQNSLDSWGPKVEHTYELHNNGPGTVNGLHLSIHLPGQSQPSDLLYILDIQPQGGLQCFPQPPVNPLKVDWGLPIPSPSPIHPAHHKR
UniProt P08514, 891-1039 limits assumed: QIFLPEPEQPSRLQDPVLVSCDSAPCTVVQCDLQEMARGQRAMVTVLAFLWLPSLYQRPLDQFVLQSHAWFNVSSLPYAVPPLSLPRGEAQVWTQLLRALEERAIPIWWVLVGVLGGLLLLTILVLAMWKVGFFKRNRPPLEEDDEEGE
UniProt P08648, 895-1049 limits assumed: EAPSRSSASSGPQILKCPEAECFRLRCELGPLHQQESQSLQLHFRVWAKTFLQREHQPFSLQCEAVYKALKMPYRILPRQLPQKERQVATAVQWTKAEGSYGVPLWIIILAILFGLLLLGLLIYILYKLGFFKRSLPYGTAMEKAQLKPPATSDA
UniProt P08648, 42-894 limits assumed: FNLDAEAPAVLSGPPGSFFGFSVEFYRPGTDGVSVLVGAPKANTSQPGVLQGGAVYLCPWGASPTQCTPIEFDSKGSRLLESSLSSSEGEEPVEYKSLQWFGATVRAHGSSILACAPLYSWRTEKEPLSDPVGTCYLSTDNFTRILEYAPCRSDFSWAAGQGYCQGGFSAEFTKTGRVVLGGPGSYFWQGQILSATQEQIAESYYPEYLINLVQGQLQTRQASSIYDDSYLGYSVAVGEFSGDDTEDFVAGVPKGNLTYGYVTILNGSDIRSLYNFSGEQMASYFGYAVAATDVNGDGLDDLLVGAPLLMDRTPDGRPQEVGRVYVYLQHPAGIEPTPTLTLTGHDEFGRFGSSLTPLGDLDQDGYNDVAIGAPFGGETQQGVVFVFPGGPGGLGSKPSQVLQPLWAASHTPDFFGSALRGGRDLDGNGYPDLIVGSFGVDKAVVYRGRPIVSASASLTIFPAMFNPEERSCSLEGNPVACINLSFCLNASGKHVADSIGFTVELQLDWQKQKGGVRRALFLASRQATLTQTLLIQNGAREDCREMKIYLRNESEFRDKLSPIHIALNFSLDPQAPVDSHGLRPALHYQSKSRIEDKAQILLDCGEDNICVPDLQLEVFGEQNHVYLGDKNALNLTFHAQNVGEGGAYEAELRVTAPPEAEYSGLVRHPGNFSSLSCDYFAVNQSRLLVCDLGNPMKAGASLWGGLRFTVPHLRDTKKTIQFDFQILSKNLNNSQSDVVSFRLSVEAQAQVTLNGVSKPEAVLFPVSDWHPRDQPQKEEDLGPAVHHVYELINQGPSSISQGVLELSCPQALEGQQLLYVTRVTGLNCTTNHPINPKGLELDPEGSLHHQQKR

In patent publication US6521594B1, “Method and composition for treating thrombosis” (La Jolla Cancer Research Foundation, priority 1990, dated 2003):

Experiments:
αIIbβ3 [1] = target: T1, αIIbβ3 (Homo sapiens, UniProt P05106+P08514); assay: αIIbβ3 ELISA IC50 (μM)
T1 construct: Platelet glycoprotein IIb/IIIa was purified from outdated human platelets; from tissue; host or cells: outdated human platelets
Description: (§1) Table printed on a drawing sheet, FIG. 19
(§2) Title: Modifications of R(Pmc)GHRGD(Y-OMe)RCR
(§3) Head of the field: αIIbβ3 ELISA IC50 (μM)
(§4) The patent's description of the figure: FIG. 19 (SEQ ID NOS. 1, 147-149, 76 and 68, respectively) is a Table summarizing the effect of substitutions in position −2 (as defined, infra) of peptide R(Pmc)GHRGD(Y-OMe)RCR (SEQ ID NO. 1). […]
(§5) First copying reader's note: The part of each sequence from (Pmc) through C is underlined on the sheet, and the footnotes a,b cited in the head are not printed on it.
(§6) Where the first naming reader finds the target: head: αIIbβ3 ELISA IC50 (μM)

α5β1 [2] = target: T2, α5β1 (Homo sapiens, UniProt P05556+P08648); assay: α5β1 ELISA IC50 (μM)
T2 construct: Fibronectin receptor (Fn-R) was similarly purified from (100 mM) octyl glucoside-extracted human placenta; from tissue; host or cells: human placenta
Description: as §1, §2
(§7) Head of the field: α5β1 ELISA IC50 (μM)
as §4, §5
(§8) Where the first naming reader finds the target: head: α5β1 ELISA IC50 (μM)

αIIbβ3 [3] = target: T1, αIIbβ3; assay: αIIbβ3 ELISA IC50 (μM); remark: listed apart in the source
Description: Table printed on a drawing sheet, FIG. 22
Title: Modifications of Ac-CNPRGD(Y-OMe)RC-NH2
as §3
The patent's description of the figure: FIG. 22 (SEQ ID NOS. 3, 160-163, 2 and 164, respectively) is a Table showing the effect of modifying Ac-CNPRGD(Y—Me)RC-NH2 at position −3 (as defined, infra). […]
First copying reader's note: Underlining in the printed sequences marks the cyclic part; the footnote for the raised a at 'Peptide' is not printed on the sheet, and the D in D-Pen is printed as a small capital.
as §6

α5β1 [4] = target: T2, α5β1; assay: α5β1 ELISA IC50 (μM); remark: listed apart in the source
Description: (§9) Table printed on a drawing sheet, FIG. 20
as §2, §7
(§10) The patent's description of the figure: FIG. 20 (SEQ ID NOS. 1 and 150-153, respectively) is a Table summarizing the effect of modifications at position −1 (as defined, infra) in peptide R(Pmc)GHRGD(Y-OMe)RCR. […]
(§11) First copying reader's note: Footnote marks a, b and c are printed but their texts are not on the sheet; the underlined part of each sequence (Pmc to C) marks the cyclic portion, and D in (DH) and (DY) is a small capital for the D-amino acid.
as §8

αIIbβ3 [5] = target: T1, αIIbβ3; assay: αIIbβ3 ELISA IC50 (μM); remark: listed apart in the source
Description: as §9, §2, §3, §10, §11, §6

R(Pmc)NHRGD(Y-OMe)RCR [compound 21]
IC50 (αIIbβ3 [1]): 0.09 µM

R(Pmc)DHRGD(Y-OMe)RCR [compound 18]
IC50 (α5β1 [2]): 9.2 µM

R(Pmc)SHRGD(Y-OMe)RCR [compound 19]
IC50 (αIIbβ3 [1]): 0.12 µM

R(Pmc)IHRGD(Y-OMe)RCR [compound 20]
IC50 (α5β1 [2]): 6.4 µM

Ac-(Pmc)NPRGD(Y-OMe)RC-NH2 [compound 37]
IC50 (αIIbβ3 [3]): 0.016 µM

R(Pmc)G(DH)RGD(Y-OMe)RCR [compound 23]
IC50 (α5β1 [4]): 6.8 µM

R(Pmc)G(DY)RGD(Y-OMe)RCR [compound 25]
IC50 (αIIbβ3 [5]): 0.01 µM

Where two headings read alike, the source gives them in different places.
